## Yeast mating assay B: variants of the scFv Ab-14

The measurements come from Li et al. 2023 (doi:10.1038/s41467-023-39022-2) through the FLAb antibody collection.

Target peptide (SARS-CoV-2 spike, HR2 region): PDVDLGDISGINAS

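Designed CDR sequences, proposed from the first random library and measured here. Several design methods are mixed in this list. Affinity was read by AlphaSeq, a pooled yeast mating assay with surface-displayed partners. Mating (16 h, 30 °C) was followed by selection of diploids and sequencing of their barcodes. A regression on co-assayed BCL2-family reference pairs converts the normalised counts of each replicate to an apparent Kd. There are six technical replicates.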

Each scFv is VH, a 15-residue (Gly4Ser)3 linker, VL, as in the parent Ab-14, and differs from it in the CDRs of the heavy chain only.
VH: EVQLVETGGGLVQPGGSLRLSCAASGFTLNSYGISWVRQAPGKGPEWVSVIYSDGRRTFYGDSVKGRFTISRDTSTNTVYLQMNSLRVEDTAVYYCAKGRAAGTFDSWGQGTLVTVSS
VL: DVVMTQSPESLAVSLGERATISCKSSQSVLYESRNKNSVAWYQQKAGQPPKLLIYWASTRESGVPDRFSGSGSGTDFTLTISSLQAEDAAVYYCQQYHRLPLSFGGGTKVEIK

Variants are written as CDR1, CDR2 and CDR3 of the heavy chain (limits as in the source). Parent: GFTLNSYGIS, VIYSDGRRTFYGDSVK, GRAAGTFDS. Values are apparent Kd, the geometric mean of the replicates that gave a signal; lower means stronger binding. A pair that was not seen in any replicate is written "no signal"; this usually means weak binding, but a binder can also be missed. The range of this assay differs from that of the first round, and the authors advise against merging the two. As a blank, each scFv also met three strains without target: over all heavy chain designs, 1% of these pairings were detected, typically at 120 nM and seldom below 7.0 nM. Also given: how often the same scFv was detected with the empty control strains. In the paper, a design with two or fewer of six values counts as a poor binder. Of ten entries with the parent sequence, four were seen in most replicates (averages 2.2 nM to 240 nM), three in one and three in none, so single entries are noisy.

CDR-H1	CDR-H2	CDR-H3	Kd (apparent)	replicates with signal	control signals
GFTINSYGIS	VIYSDGRRTFYHDSVK	IRAAGTTDS	no signal	0/6	0/18
GFNLNSYGIS	VIYSDGRRTFYGDSVK	GNAAGTFDV	7.0 nM	5/6	0/18
GYDLDDYGIS	VIYADGKRTSYAESVK	GNNGGSFMN	no signal	0/6	0/18
GFELNSYGIS	VIYSDGRRTFYQDSVK	GKVAGTFDS	1.3 nM	6/6	0/18
GFTLNDYGIS	VIYSDGRRMFYIDSVK	GRAAGTFDS	7.3 nM	5/6	0/18
GFTINSYGIS	VIYSDGRRTFYGDSVK	DRAAGTFWS	no signal	0/6	0/18
GFNLNEYGIS	VIYADGRRTFYADSVK	GENAGTFDV	260 pM	6/6	0/18
GFDLDEYGIS	VIYADGMRVSYSQNVK	GRGGVVFIA	no signal	0/6	0/18
GFDLNEYGVS	VIYADGMRRAYAANFK	GVTAGGLGI	no signal	0/6	0/18
GFDLDEYGIS	VIYADGRRTFYKDSVK	GNNAGTFDM	16 nM	6/6	0/18
GFDIEEYGIS	VIYADGMRSSYSQSFK	GLYSGNISV	600 nM	1/6	0/18
KFDLNSYGIS	VIYSDGRRTFYSDSVK	GRTAGTFDS	2.4 nM	6/6	0/18
GFTLNSYGIS	VIYSDGRRTFYDDRVK	GQLAGTFDS	12 nM	6/6	0/18
GFDLNEYGIS	VIYADGRRTFYIDSVK	GNQAGTFDS	590 pM	6/6	0/18
GFDLNEYGIS	VIYADGKRTYYADSVK	GQNAGTFDI	130 pM	6/6	0/18
GFELNNYGIS	VIYSDGRRTAYGDSVK	GRAAGTFDS	720 nM	2/6	1/18
GFTLNSYGIS	VIYSDGRRTFYGDSVK	GREAGEFDT	no signal	0/6	0/18
GFDLEEYGIS	VIYADGMRQMYAQNFK	GYNGSDGTV	no signal	0/6	0/18
GFNLNSYGIS	VIYSDGRRTAYGDYVK	SRNAGTFES	no signal	0/6	1/18
GFNLEDYGIS	VIYADGRRTSYVDSVK	GKVAGTFDV	600 pM	6/6	0/18
GFDLDEYGIS	VIYADGSRTAYSKNVK	GGFDIKVIV	no signal	0/6	0/18
GFTLNSYGIS	VIYSDGRRTSYGDQVK	GRAAGTFDS	42 nM	2/6	0/18
GFDLNEYGIS	VIYADGLRTAYADSVK	GENAGTFDI	1.1 nM	6/6	0/18
GFTLNSYGIS	VIYSDGRRTFYGDSVK	GRAAGTLWM	no signal	0/6	0/18
GFTLNDYGIS	VIYSDGRRTHYIDSVK	GRAAGTFDS	1.9 nM	6/6	1/18
GFNLDEYGVS	VIYADGQRTQYVQTVK	GKTGFVLFD	no signal	0/6	0/18
GFDIQDYGIS	VIYADGSRTAYTNSVK	GVQGASYDL	190 nM	1/6	2/18
GFDLNEYGIS	VIYADGRRTFYADSVK	GKVAGTFDQ	230 pM	6/6	1/18
GFDLDEYGIS	VIYADGRRTAYADSVK	GNVAGTFDM	300 pM	6/6	1/18
GFELNEYGIS	VIYSDGRRTFYGDSVK	GKTAGTFDT	no signal	0/6	0/18
HFDLNSYGIS	VIYSDGRRTAYGDSVK	GRTAGTFDS	4.1 nM	6/6	0/18
GFDLDEYGIS	VIYADGMRTSYADSVK	GEVAGTFDV	570 pM	6/6	2/18
GFSLNEYGIS	VIYSDGRRTFYDDSVK	GPAAGTFDR	40 nM	2/6	1/18
GFSLNEYGIS	VIYSDGRRTFYGDSVK	GRTAGTFDN	850 pM	6/6	0/18
GFTLNSYGIS	VIYSDGLRTFYGDSVK	GRAAGTFIS	no signal	0/6	0/18
GFTLDSYGIS	VIYSDGRATFYGDSVK	GRAAGTALS	no signal	0/6	0/18
GFDLNSYGIS	VIYSDGRRTFYGDSVK	GRAAATFDS	910 nM	1/6	1/18
GFDLDKYGIS	VIYADGRRKFYQNQFK	GGQAGTFDI	1.3 nM	6/6	0/18
GFDLNEYGIS	VIYADGMRTAYVDDVK	GNVAGTFDV	140 pM	6/6	0/18
GFDINEYGIS	VIYADGRRKAYADAVK	GIDVYGKTV	no signal	0/6	1/18
GFDLNSYGIS	VIYSDGRRTFYGDSVK	GKTAGTFDA	990 pM	6/6	0/18
GFDIEEYGIS	VIYADGVRAMYASNFK	GKIAGTGLL	no signal	0/6	0/18
GFTLNNYGIS	VIYSDGRRTQYIDSVK	GRAAGTFDS	1.0 µM	2/6	0/18
GFDLEDYGIS	VIYADGRRTAYIDSVK	GELAGTFDS	700 pM	6/6	0/18
GFTLNSYGIS	VIYSDGRRTSYHDSVK	GNAAGTGDS	1.0 nM	6/6	0/18
GFTLNSYGIS	VIYSDGQRTFYGDSVK	GWVAGTFDL	6.6 nM	6/6	0/18
GFDLNEYGIS	VIYADGRRTAYVDSVK	GNVAGTFDT	200 pM	6/6	0/18
GFTLNSYGIS	VIYSDGRRTFYHDSVK	VRAASVFDS	22 nM	1/6	0/18
GFDLNEYGIS	VIYADGMRTQYIDSVK	GNTAGTFDV	790 pM	5/6	0/18
GFPLNSYGIS	VIYSDGRRTFYGDSVK	GWAAGTFDS	140 nM	1/6	0/18
GFTLNDYGIS	VIYSDGIRTFYGDSVK	GRQAGTFIS	no signal	0/6	0/18
GFTLESYGIS	VIYSDGRRTFYGDSVK	GRWAGTFIS	no signal	0/6	0/18
GFDLDEYGIS	VIYADGMRTAYSDSVK	GENAGTFDV	1.7 nM	4/6	0/18
GFDLDEYGIS	VIYADGSRVAILESVK	GKIAGTLDA	1.1 nM	6/6	0/18
GFTLNSYGIS	VIYSDGRRTFYMDSVK	GRAAGHGDS	no signal	0/6	0/18
GFTINSYGIS	VIYSDGRRTFYGDSVK	GRNAGTFDS	5.5 nM	3/6	0/18
GFDLNEYGIS	VIYADGQRTFYTDSVK	GENAGTFDV	530 pM	5/6	0/18
GFTLNSYGIS	VIYSDGFRTFYGDSVK	GRVAGTFDS	33 nM	5/6	0/18
GFTLNEYGIS	VDYSDGRRTAYGDSVK	GDMAGTFDS	no signal	0/6	0/18
GFDLNEYGIS	VIYADGVRTAYIDSVK	GNVAGTFDQ	20 pM	6/6	0/18
GFSLNSYGIS	VIYSDGRRTFYGDDVK	GQAAGTFDL	10 nM	6/6	0/18
GFDLNEYGIS	VIYADGRRTFYADSVK	GSNAGTFDM	370 pM	5/6	0/18
GFDLNSYGIS	VIYSDGKRTFYADSVK	GRQAGTFDS	250 pM	6/6	0/18
GFDLNSYGIS	VIYSDGRRTFYDDSVK	GQGAGTFDS	no signal	0/6	0/18
GFSLNEYGIS	VIYADGRRTFYGDSVK	GRAAGTFKS	2.1 nM	6/6	0/18
GFTLNDYGIS	VIYSDGRRTYYIDSVK	GRTAGTFDS	8.4 nM	5/6	0/18
GFNLNSYGIS	VIYSDGRRTFYADRVK	GKAAGTFDS	20 nM	6/6	1/18
GFDLNEYGIS	VIYADGKRTFYADSVK	GQTAGTFDS	280 pM	6/6	0/18
GDGLEEYGIS	VIYADGMRESYVNDVK	GQKSGIFNL	no signal	0/6	0/18
GFDLDEYGIS	VIYADGSRTAYADSVK	GETAGTFDV	650 pM	6/6	2/18

For reference, 8 entries of the list once more:

CDR-H1,CDR-H2,CDR-H3,Kd (apparent),replicates with signal,control signals
GFELNEYGIS,VIYSDGRRTFYGDSVK,GKTAGTFDT,no signal,0/6,0/18
GFDIEEYGIS,VIYADGMRSSYSQSFK,GLYSGNISV,600 nM,1/6,0/18
GFTLNDYGIS,VIYSDGRRTHYIDSVK,GRAAGTFDS,1.9 nM,6/6,1/18
GFTLNSYGIS,VIYSDGRRTFYGDSVK,GRAAGTLWM,no signal,0/6,0/18
GFTLNNYGIS,VIYSDGRRTQYIDSVK,GRAAGTFDS,1.0 µM,2/6,0/18
GFDLNEYGIS,VIYADGRRTFYIDSVK,GNQAGTFDS,590 pM,6/6,0/18
GFTLNEYGIS,VDYSDGRRTAYGDSVK,GDMAGTFDS,no signal,0/6,0/18
GFDLNEYGIS,VIYADGKRTYYADSVK,GQNAGTFDI,130 pM,6/6,0/18